Source: US12473270B2, “CB1R receptor blockers with acyclic backbones” (YISSUM RESEARCH DEVELOPMENT COMPANY OF THE HEBREW …, priority 2019, dated 2025)

Sequences of proteins named here, by UniProt entry; tags and fusion partners are left off.
UniProt P47746, whole entry: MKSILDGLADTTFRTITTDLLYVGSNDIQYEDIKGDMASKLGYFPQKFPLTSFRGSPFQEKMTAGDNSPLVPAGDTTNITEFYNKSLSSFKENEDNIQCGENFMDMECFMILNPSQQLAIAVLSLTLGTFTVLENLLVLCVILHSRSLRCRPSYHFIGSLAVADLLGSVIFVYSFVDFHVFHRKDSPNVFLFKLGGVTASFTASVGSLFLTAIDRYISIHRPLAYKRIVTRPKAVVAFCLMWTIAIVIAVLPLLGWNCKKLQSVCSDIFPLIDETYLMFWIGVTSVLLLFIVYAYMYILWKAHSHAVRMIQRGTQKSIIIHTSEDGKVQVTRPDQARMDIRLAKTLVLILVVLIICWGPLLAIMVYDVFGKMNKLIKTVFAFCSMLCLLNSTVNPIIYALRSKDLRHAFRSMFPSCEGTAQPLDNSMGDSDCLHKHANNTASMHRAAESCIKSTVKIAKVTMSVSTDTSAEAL

Molecular target: T1, CB1 receptor (Mus musculus, UniProt P47746)
T1 construct: crude membranes from mouse brain for CB1 receptor; from tissue; host or cells: mouse brain membranes (crude / P2)
Assay: [35S]GTPγS binding in mouse brain membranes
Type: biochemical
Details: compound alone
Experimental: [^35S]GTPγS binding. Mouse brains were dissected and P2 membranes prepared and resuspended at ˜6 μg protein/μL in 1 ml assay buffer (50 mM Tris HCl, 9 mM MgCl2, 0.2 mM EGTA, 150 mM NaCl; pH 7.4). […] Briefly, membranes (10 μg protein) were incubated in assay buffer containing 100 μM GDP, 0.05 nM [^35S]GTPγS, test compounds at 1 nM-1 μM, and 1.4 mg/mL fatty acid-free BSA in siliconized glass tubes. Bound ligand was separated from free by vacuum filtration. Non-specific binding was determined using 10 μM GTPS. Basal binding was assayed in the absence of the ligand and in the presence of GDP.

GTPγS binding in mouse brain membranes: reduces GTPγS binding
Structure (SMILES): Cc1c(C(=O)NN2CCCCC2)nn(-c2ccc(Cl)cc2Cl)c1-c1ccc(Cl)cc1 [rimonabant, reference compound]
